From patent publication US20250270224A1, “POLYCYCLIC POLY(ADP-RIBOSE) POLYMERASE SELECTIVE INHIBITOR” (XUANZHU BIOPHARMACEUTICAL CO., LTD., priority 2022, published 2025)

Protein sequences, listed by entry. Tags and fused reporters are not part of them.
UniProt P09874, whole entry: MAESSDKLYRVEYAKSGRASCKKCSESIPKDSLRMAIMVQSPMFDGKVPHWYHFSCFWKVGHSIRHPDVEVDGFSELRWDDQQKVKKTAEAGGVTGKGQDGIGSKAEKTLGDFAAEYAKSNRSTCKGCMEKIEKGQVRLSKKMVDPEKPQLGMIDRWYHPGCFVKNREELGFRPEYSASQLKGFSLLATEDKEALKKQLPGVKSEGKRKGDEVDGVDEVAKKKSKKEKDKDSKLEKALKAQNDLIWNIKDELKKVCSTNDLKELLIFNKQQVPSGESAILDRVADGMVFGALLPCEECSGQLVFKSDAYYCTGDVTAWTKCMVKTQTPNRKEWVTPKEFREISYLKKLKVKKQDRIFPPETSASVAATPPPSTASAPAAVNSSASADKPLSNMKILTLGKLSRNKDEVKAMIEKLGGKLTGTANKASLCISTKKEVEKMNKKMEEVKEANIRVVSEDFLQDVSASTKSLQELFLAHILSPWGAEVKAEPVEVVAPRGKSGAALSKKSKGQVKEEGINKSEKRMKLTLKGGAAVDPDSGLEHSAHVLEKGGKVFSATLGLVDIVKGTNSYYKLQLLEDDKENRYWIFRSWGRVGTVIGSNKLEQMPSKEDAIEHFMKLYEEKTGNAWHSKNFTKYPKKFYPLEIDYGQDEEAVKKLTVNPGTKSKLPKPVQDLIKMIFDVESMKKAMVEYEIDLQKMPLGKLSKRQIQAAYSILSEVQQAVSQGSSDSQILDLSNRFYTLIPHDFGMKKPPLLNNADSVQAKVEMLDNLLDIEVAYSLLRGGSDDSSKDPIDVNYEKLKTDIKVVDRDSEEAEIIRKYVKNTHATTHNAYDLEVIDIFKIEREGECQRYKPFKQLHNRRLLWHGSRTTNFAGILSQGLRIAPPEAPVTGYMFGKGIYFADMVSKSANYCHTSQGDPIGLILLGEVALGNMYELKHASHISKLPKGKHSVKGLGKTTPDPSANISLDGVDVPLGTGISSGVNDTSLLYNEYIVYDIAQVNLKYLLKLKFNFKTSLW
UniProt Q9UGN5, whole entry: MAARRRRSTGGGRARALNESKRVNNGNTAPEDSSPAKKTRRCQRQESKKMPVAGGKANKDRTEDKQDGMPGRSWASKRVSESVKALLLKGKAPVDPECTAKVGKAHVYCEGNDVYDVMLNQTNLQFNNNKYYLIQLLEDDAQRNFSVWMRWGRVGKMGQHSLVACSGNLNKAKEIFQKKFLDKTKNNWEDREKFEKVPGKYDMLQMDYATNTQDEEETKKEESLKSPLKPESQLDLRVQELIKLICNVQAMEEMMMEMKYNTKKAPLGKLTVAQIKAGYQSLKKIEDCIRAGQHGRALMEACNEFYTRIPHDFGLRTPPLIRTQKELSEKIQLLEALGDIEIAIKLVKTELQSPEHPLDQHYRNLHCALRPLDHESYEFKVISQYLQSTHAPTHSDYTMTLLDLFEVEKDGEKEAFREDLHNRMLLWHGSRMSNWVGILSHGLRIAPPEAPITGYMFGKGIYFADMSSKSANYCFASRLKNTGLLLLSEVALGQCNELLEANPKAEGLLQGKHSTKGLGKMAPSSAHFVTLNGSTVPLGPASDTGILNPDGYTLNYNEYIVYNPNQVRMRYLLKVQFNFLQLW

Tests used:
MDA-MB-436 cells = test: In-vitro cytological inhibitory activity (CelltiterGlo assay), 7 days culture; type: cell-based; conditions: read-out: MDA-MB-436 (IC50), BRCA1 mutated human breast cancer cells, CTG
PARP1 = PARP1 (Homo sapiens (Human), UniProt P09874); test: In-vitro enzymatic activity, PARP1 (histone-coated plate, chemiluminescence detection); type: biochemical; conditions: read-out: PARP1 IC50; class symbols
PARP2 = PARP2 (Homo sapiens (Human), UniProt Q9UGN5); test: In-vitro enzymatic activity, PARP2 (histone-coated plate, chemiluminescence detection); type: biochemical; conditions: read-out: PARP2 IC50; class symbols

Row | IC50 (MDA-MB-436 cells) | IC50 (PARP1) | IC50 (PARP2) | Structure (SMILES)
1 | 5.9 nM | < 1 nM | 100 to 1000 nM | CNC(=O)c1ccc(N2CCN(Cc3cc4c5c(c3)c(F)cn5C(C)C(=O)N4)CC2)c(F)n1 (single isomer, unassigned) [Compound 41-1]
2 | 5.5 nM | < 1 nM | 100 to 1000 nM | CNC(=O)c1ccc(N2CCN(Cc3cc4c5c(c3)c(F)cn5C(C)C(=O)N4)CC2)c(F)n1 (single isomer, unassigned) [Compound 41-2]
